One assay deals with Cholinesterase (Homo sapiens, UniProt P06276). Description: In vitro inhibition of human plasma butyrylcholinesterase. The format is cell-free.
Another assay deals with Acetylcholinesterase (Homo sapiens, UniProt P22303). In words: In vitro inhibition of human erythrocyte acetylcholinesterase.

By UniProt entry, the sequences of proteins in these tests, tags left out. Where a name states a change or a piece, a line headed by the entry shows the natural chain unless it says otherwise.
UniProt P06276, whole entry: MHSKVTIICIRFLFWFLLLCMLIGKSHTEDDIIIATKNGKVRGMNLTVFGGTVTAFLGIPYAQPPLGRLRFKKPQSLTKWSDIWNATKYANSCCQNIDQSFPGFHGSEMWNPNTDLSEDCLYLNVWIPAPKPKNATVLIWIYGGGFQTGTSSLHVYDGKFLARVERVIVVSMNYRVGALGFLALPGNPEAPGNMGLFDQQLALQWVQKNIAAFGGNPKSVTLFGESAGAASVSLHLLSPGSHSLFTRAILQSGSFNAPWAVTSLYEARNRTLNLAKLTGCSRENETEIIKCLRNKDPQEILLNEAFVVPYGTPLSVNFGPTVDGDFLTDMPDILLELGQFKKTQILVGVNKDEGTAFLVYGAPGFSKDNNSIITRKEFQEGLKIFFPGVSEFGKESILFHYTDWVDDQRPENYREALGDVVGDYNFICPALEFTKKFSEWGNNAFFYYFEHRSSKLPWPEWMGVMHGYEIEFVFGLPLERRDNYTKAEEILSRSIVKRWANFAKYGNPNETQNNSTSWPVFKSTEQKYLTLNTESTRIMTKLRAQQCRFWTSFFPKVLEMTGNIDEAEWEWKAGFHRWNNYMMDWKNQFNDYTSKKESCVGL
UniProt P22303: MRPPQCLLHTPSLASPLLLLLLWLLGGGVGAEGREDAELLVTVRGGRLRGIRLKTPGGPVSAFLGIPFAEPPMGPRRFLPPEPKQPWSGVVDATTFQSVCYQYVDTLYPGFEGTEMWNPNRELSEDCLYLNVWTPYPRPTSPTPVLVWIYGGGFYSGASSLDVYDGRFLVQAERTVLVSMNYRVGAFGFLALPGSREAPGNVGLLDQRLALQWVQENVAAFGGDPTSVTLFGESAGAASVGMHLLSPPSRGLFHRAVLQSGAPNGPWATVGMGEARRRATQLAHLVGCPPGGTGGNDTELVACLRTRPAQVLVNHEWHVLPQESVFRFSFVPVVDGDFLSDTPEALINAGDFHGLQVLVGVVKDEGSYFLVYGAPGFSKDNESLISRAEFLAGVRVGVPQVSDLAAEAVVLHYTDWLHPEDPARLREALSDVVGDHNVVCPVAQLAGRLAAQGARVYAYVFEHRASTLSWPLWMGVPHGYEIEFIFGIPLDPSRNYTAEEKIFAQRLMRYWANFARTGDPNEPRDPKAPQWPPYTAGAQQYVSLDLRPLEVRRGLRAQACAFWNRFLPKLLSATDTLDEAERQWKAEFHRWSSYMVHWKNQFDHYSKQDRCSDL

Take `CC(C)c1ccc(NC(=O)Oc2ccc3c(c2)[C@]2(C)CCN(C)[C@@H]2N3C)cc1` [4-ISOPROPYLPHENSERINE]: the IC50 (as a rule, the point on the concentration scale where inhibition reaches its midpoint) against Cholinesterase worked out at 50 nM.
With `CN1CC[C@@]2(C)c3cc(OC(=O)Nc4ccccc4)ccc3N(C)[C@@H]12` [PHENSERINE], the IC50 against Acetylcholinesterase was found to be 22 nM.
